Test results as given in ChEMBL document CHEMBL1156774, “Design of O-acetylserine sulfhydrylase inhibitors by mimicking nature” (J Med Chem, 2010).

Columns and labels:
[1] = target: T1, Cysteine synthase (Haemophilus influenzae (strain ATCC 51907 / DSM 11121 / KW20 / Rd)) (UniProt P45040); assay: (§1) Binding affinity to Haemophilus influenzae O-acetylserine sulfhydrylase expressed in Escherichia coli BL21 (DE3) by fluorescence emission spectra analysis
T1 sequence (whole entry): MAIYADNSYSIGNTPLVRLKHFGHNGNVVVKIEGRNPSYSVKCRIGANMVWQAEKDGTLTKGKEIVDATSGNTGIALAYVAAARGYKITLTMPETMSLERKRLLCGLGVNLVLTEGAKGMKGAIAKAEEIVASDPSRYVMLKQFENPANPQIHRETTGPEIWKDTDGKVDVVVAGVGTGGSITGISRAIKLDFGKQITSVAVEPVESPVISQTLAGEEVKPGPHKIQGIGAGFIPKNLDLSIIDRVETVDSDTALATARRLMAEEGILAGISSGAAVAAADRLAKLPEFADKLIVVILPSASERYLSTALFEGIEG

Cysteine synthase = target: T2, Cysteine synthase (Haemophilus influenzae (strain ATCC 51907 / DSM 11121 / KW20 / Rd), UniProt P45040); assay: as §1
T2 sequence (P45040 whole entry): T1 sequence (whole entry)

SMILES	Kdiss [1]	Kd (Cysteine synthase)
CC[C@H](C)[C@H](NC(=O)[C@@H](NC(=O)[C@H](CCCCN)NC(=O)[C@H](CC(N)=O)NC(=O)[C@@H](N)CCSC)C(C)C)C(=O)O	13300 µM	13200 µM
CC[C@H](C)[C@H](NC(=O)[C@H](CC(N)=O)NC(=O)[C@H](Cc1c[nH]c2ccccc12)NC(=O)[C@H](CC(N)=O)NC(=O)[C@@H](N)CCSC)C(=O)O		25.1 µM
CC[C@H](C)[C@H](NC(=O)[C@H](CC(=O)O)NC(=O)[C@H](Cc1ccc(O)cc1)NC(=O)[C@H](CC(N)=O)NC(=O)[C@@H](N)CCSC)C(=O)O		25.7 µM
CC[C@H](C)[C@H](NC(=O)[C@H](Cc1cnc[nH]1)NC(=O)[C@@H]1CCCN1C(=O)[C@H](CC(N)=O)NC(=O)[C@@H](N)CCSC)C(=O)O	7100 µM	7080 µM
CC[C@H](C)[C@H](NC(=O)[C@H](Cc1ccccc1)NC(=O)[C@H](Cc1ccc(O)cc1)NC(=O)[C@H](CC(N)=O)NC(=O)[C@@H](N)CCSC)C(=O)O	191 µM	191 µM
CC[C@H](C)[C@H](NC(=O)[C@@H](NC(=O)[C@H](CCC(=O)O)NC(=O)[C@H](CC(N)=O)NC(=O)[C@@H](N)CCSC)[C@@H](C)O)C(=O)O	3420 µM	3390 µM
CC[C@H](C)[C@H](NC(=O)CNC(=O)[C@H](CCCCN)NC(=O)[C@H](CC(N)=O)NC(=O)[C@@H](N)CCSC)C(=O)O	15200 µM	15100 µM
CC[C@H](C)[C@H](NC(=O)[C@H](CC(N)=O)NC(=O)[C@H](CCC(=O)O)NC(=O)[C@H](CC(N)=O)NC(=O)[C@@H](N)CCSC)C(=O)O		38.9 µM
